Measured values taken from patent publication US9278978B2.

Target: cIAP1 BIR3 (Homo sapiens (Human), UniProt Q13490)
Assay: cIAP1 BIR3 binding assay (DELFIA), BIR3 domain-SMAC peptide interaction
Settings: BIR3 domain 10 nM, SMAC peptide 10 nM; (S)-isomer (examples 1-34, 38-43) or racemate (examples 35-37); read-out: cIAP1 BIR-3 IC50

IC50 [nM]	SMILES
10	CNC(C)C(=O)Nc1cc(-c2cccc3cnn(C)c23)c(Cl)c(C#Cc2ccc3c(ccc(=O)n3C)c2)n1 (stereo not shown) [Example 25, N-[5-chloro-4-(1-methyl-1H-indazol-7-yl)-6-[2-(1-methyl-2-oxo-1,2-dihydroquinolin-6-yl)ethynyl]pyridin-2-yl]-2-(methylamino)propanamide]
2640	CNC(C)C(=O)Nc1cc(-c2ccccc2)cc(C#Cc2ccccc2)n1 (stereo not shown) [Example 33, 2-(methylamino)-N-[4-phenyl-6-(2-phenylethynyl)pyridin-2-yl]propanamide]
1	CNC(C)C(=O)Nc1cc(-c2nc(C)nc3c(C)nn(C)c23)cc(C#Cc2ccc3c(C)nccc3c2)n1 (stereo not shown) [Example 16, 2-(methylamino)-N-{6-[2-(1-methylisoquinolin-6-yl)ethynyl]-4-{trimethyl-1H-pyrazolo[4,3-d]pyrimidin-7-yl}pyridin-2-yl}propanamide]
1	CNC(C)C(=O)Nc1cc(-c2nc(C)nc3c(C)nn(C)c23)cc(C#Cc2ccc3c(cnn3C)c2)n1 (stereo not shown) [Example 17, N-{6-[2-(1-methyl-1H-indazol-5-yl)ethynyl]-4-{trimethyl-1H-pyrazolo[4,3-d]pyrimidin-7-yl}pyridin-2-yl}-2-(methylamino)propanamide]
